Experimental findings from paper PMC8491194, “A cyclic peptide retards the proliferation of DU145 prostate cancer cells in vitro and in vivo through inhibition of FGFR2” (MedComm, 2020) are described below.

Data set [1] relates to heart, liver, spleen, lung, and kidney. Kind of data set: H&E staining of major organs of tumor-bearing mice. The data set is classed as in vivo, BALB/C‐nu/nu mice. As to conditions: tumor-bearing mice at functional doses, paraffin sections. The protocol: DU145 cells with a density above 90% were harvested in to a microtube. The cell concentration was adjusted to 1 × 10^7 cells/mL, and two million cells were injected under the right arm of each individual. After injection, the tumors grew to a size of approximately 200 mm^3 in the following days. In terms of experimental grouping, there were five experimental groups; namely, the blank control group (PBS), the P5‐3 group (50 mg/kg dose of biotin‐P5‐3), the P5 group (concentration gradient of 10‐25 mg/kg), the DcP5 group (concentrations of 10, 25, and 50 mg/kg dose of biotin‐DcP5 peptide), and the positive control group (FGFR2‐targeted antineoplastic drug AZD4547 with a dose of 6.25 mg/kg). Animal models were randomly selected and assigned to each experimental group, and compounds were administered by intratumoral injections. The dosing regimen was one injection a day for 7 days. The length and width of the tumor were measured using a Vernier caliper once a day, and the animal's weight was recorded once a day from the beginning of the experiment. On Day 14, blood samples of each animal were collected, the tumor tissue was separated and weighed, and internal organs were collected. The tumor volume was calculated according to the formula V = ab ^2/2 (a refers to the length of the tumor, and b refers to the width). […]

Data set [2] can be described thus: Body weight of tumor-bearing mice. The data set is classed as in vivo, BALB/C‐nu/nu mice. As to conditions: various dosing regimens; data not shown. The protocol: DU145 cells with a density above 90% were harvested in to a microtube. The cell concentration was adjusted to 1 × 10^7 cells/mL, and two million cells were injected under the right arm of each individual. After injection, the tumors grew to a size of approximately 200 mm^3 in the following days. In terms of experimental grouping, there were five experimental groups; namely, the blank control group (PBS), the P5‐3 group (50 mg/kg dose of biotin‐P5‐3), the P5 group (concentration gradient of 10‐25 mg/kg), the DcP5 group (concentrations of 10, 25, and 50 mg/kg dose of biotin‐DcP5 peptide), and the positive control group (FGFR2‐targeted antineoplastic drug AZD4547 with a dose of 6.25 mg/kg). Animal models were randomly selected and assigned to each experimental group, and compounds were administered by intratumoral injections. The dosing regimen was one injection a day for 7 days. The length and width of the tumor were measured using a Vernier caliper once a day, and the animal's weight was recorded once a day from the beginning of the experiment. On Day 14, blood samples of each animal were collected, the tumor tissue was separated and weighed, and internal organs were collected. The tumor volume was calculated according to the formula V = ab ^2/2 (a refers to the length of the tumor, and b refers to the width).

Regarding AZD4547 [reference compound], in data set [1], the “toxicity toward heart, liver, spleen, lung, and kidney (H&E morphology)” value is given as “negligible toxicity”. Moreover, in data set [2], the “body weight versus other groups incl. blank” value was “little difference in body weight”.
